# Measured affinities in a library of Ab-14 heavy chain variants

Binding partner: SARS-CoV-2 spike HR2 peptide, sequence PDVDLGDISGINAS.

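Library AAYL49 holds single substitutions and randomly drawn double and triple substitutions in the CDRs. The assay is AlphaSeq: two haploid yeast populations carry antibody and antigen on their surface. Binding brings cells together so that they mate, and sequencing counts the barcode pairs among the diploids. Each replicate has its own calibration line, from reference interactions of the BCL2 family. There are three technical replicates.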

The variants keep the light chain, the linker and the frameworks of Ab-14 (scFv order VH, the linker GGGGSGGGGSGGGGS, VL).
VH: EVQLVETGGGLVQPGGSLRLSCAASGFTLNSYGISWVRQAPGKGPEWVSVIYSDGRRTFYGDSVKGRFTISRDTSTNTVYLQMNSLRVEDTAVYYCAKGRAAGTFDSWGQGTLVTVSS
VL: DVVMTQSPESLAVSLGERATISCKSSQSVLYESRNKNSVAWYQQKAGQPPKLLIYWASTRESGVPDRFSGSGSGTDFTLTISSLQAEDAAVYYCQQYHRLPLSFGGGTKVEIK

Substitutions are numbered in sequence along the VH above, starting at 1 (not Kabat).
All variants listed here change G33 of the VH, counted from its first residue.
Affinities are written as log10 Kd with Kd in nM; a lower number is a better binder.
Averages over replicates are reported, and they cover detected replicates only.
A pair that was not seen in that replicate is written "ND"; this usually means weak binding, but a binder can also be missed.
Background: pairings of library AAYL49 with three empty control strains gave a value in 15% of cases (median 4.06, 5th percentile 2.83). Values in that range, when seen in few replicates, are hard to tell from nonspecific mating.

For L29T/S31N/G33H, the assay gave ND, ND, ND.
For G33N/I34N/S53L, the assay gave 3.17, 3.98, 5.02 (mean 4.06).
For G33V/S63H/K65I, the assay gave ND, ND, ND.
For G33E/F59N/S63E, the assay gave ND, ND, ND.
For G33I/S53M/V64Y, the assay gave ND, 3.15, 4.63 (mean 3.89).
For G33L/I34D/S53E, the assay gave ND, 4.80, ND.
For N30F/G33D/R57N, the assay gave ND, 3.34, ND.
For F27Q/Y32K/G33Y, the assay gave ND, 4.18, 4.69 (mean 4.43).
For G33N/R57S/G99L, the assay gave 5.02, ND, 5.71 (mean 5.37).
For G33W/Y52S/R57W, the assay gave ND, ND, ND.
For G33I/F59I/D62H, the assay gave ND, ND, ND.
For G33L/D54S/F105G, the assay gave ND, ND, ND.
For G33A/V50A, the assay gave ND, 3.87, ND.
For G33M/Y60P/R100H, the assay gave ND, ND, ND.
For F27Y/G33E/Y52I, the assay gave 3.58, ND, ND.
For G33T/F105N/D106H, the assay gave 2.89, ND, ND.
For G33R/D62V/D106G, the assay gave ND, ND, ND.
For G33F/A101T/T104M, the assay gave 3.61, 4.26, ND (mean 3.93).
For G33H/R56E/F59A, the assay gave 3.90, ND, ND.
For L29E/G33S/D62M, the assay gave ND, ND, ND.
For N30E/G33W/R56D, the assay gave ND, ND, ND.
For S31N/G33T/G61A, the assay gave ND, 2.92, 4.75 (mean 3.84).
For G33I/V50K/D106Y, the assay gave ND, ND, ND.
For G33K/I34R/T58R, the assay gave ND, ND, 4.94.
For N30W/G33Q/G61K, the assay gave ND, ND, ND.
For G33S/Y52G/G61Q, the assay gave ND, ND, 4.37.
For G33T/Y60A/V64D, the assay gave ND, ND, ND.
For G33C/A102Y/D106K, the assay gave ND, ND, ND.
For G33L/G55S/K65N, the assay gave ND, 4.75, 4.13 (mean 4.44).
For L29V/G33K/S35N, the assay gave 4.02, ND, ND.
For Y32C/G33P, the assay gave ND, ND, 4.39.
For G33Q/S35V/K65G, the assay gave ND, ND, 3.59.
For G33N/Y60Q/D106E, the assay gave ND, ND, ND.
For G33H/D62M/A102T, the assay gave ND, ND, ND.
For G33I/G99L, the assay gave ND, ND, ND.
For G33P/Y52M/F59K, the assay gave ND, 3.21, 5.04 (mean 4.13).
For G33R/S35M, the assay gave ND, ND, ND.
For G33D/V50A/T104H, the assay gave 4.83, 2.55, ND (mean 3.69).
For S31R/G33A/R100W, the assay gave 1.45, 1.72, 1.79 (mean 1.65).

The first 2 variants above that were never detected:

Variant L29T/S31N/G33H gave ND, ND, ND.
Variant G33V/S63H/K65I gave ND, ND, ND.

Source: Engelhart et al. 2022 (doi:10.1038/s41597-022-01779-4), MIT Lincoln Laboratory and A-Alpha Bio; data file from the FLAb repository.